Results reported in patent US20030175822A1.

Amino acid sequences for entries named in this document (tags omitted).
UniProt P35372, whole entry: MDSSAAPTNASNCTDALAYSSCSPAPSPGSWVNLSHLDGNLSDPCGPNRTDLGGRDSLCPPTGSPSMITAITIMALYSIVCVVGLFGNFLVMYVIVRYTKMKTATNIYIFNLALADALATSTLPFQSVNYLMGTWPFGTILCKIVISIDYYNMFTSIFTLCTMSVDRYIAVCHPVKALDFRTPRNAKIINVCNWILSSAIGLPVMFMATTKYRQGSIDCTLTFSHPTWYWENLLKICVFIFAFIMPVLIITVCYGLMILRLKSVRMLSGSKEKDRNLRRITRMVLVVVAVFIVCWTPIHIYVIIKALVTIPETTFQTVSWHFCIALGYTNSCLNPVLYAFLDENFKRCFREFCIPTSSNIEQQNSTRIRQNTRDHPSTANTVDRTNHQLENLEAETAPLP

Columns and labels:
[1] = target: mu3 opiate receptor (human) (UniProt P35372); assay: displacement of [3H]-dihydromorphine, membrane suspension of human granulocytes
[2] = target: mu3 opiate receptor (human) (UniProt P35372); assay: displacement of [3H]-dihydromorphine, membrane suspension of normal human lung
[3] = target: mu3 opiate receptor (human) (UniProt P35372); assay: displacement of [3H]-dihydromorphine, membrane suspension of human lung non-small cell carcinoma

Measured: IC50

(Tyr-D-Ala^2, Gly-N-Me-Phe^4, Gly(ol)^5)-enkephalin (peptide)
> 1000 nM: all assays above
